Laboratory results from ChEMBL document CHEMBL1139881, “A tetrazolyl-substituted subtype-selective AMPA receptor agonist” (J Med Chem, 2007).

Chains of the proteins cited; added tags and fusions are not shown. Lines headed by an entry give the natural chain unless they say otherwise; changes in a name come on top.
UniProt P19491: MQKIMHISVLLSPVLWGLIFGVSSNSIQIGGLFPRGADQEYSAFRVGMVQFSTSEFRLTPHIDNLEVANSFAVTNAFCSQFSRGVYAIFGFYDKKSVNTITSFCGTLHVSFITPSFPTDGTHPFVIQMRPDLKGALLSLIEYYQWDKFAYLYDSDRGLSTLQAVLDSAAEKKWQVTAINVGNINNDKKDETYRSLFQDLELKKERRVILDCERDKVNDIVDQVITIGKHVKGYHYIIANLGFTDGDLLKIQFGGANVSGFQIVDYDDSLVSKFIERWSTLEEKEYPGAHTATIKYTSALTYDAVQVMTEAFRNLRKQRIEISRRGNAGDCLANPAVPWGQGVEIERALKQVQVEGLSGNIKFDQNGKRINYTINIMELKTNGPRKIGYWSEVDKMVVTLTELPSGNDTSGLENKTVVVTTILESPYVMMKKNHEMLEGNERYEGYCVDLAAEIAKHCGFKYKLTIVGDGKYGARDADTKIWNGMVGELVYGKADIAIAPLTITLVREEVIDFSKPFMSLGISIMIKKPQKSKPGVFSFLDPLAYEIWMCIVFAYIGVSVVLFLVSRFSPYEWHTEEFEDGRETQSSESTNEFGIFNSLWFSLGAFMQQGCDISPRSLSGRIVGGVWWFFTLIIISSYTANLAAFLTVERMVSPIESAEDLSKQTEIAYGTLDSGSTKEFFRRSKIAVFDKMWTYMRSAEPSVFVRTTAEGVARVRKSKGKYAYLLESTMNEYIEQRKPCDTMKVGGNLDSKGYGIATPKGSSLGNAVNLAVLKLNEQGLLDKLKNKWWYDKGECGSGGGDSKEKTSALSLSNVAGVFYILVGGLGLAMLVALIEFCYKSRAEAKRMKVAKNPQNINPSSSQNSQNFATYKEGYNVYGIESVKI

Biological target: Glutamate receptor 2 (Rattus norvegicus, UniProt P19491)
Assay: biochemical

NC(Cc1c(O)noc1-c1nnn(Cc2ccccc2)n1)C(=O)O (racemic)
Ki: 750 nM
